Assay results reported in patent publication US10028999B2, “PAR-1 based therapeutic conjugates and uses thereof” (TEL HASHOMER MEDICAL RESEARCH INFRASTRUCTURE AND SERVICES …, priority 2014, dated 2018).

Tests used:
CNS-1 glioma cells [1] = conditions: CNS-1 cells, four hours after treatment
Procedure: The thrombin-like activity of CNS-1 cells was initially measured in control cells and in cells treated with (i) the short peptide conjugate (tosyl-DPR-CK, corresponding to a conjugate that includes the peptide termed 3AA) or (ii) the long conjugate (tosyl-NATLDPR-CK, corresponding to a conjugate that includes the peptide termed 7AA (SEQ ID No. 4)) at high ([…]) and low (100 nM) concentrations (FIG. 16).

CNS-1 glioma cells [2] = assay: Proliferation (XTT) of CNS-1 glioma cells; type: cell-based, rat; conditions: CNS-1 cells
Procedure: Several peptide moieties (Table 1) according to the present invention were synthesized. Proliferation was measured, by means of XTT, in C6 and CNS-1 glioma cell-lines (FIGS. 8A and 8B, respectively). In C6 cells, proliferation was measured before (black bar) and after cells were treated with the PAR-1 antagonist SCH79797 at various doses ranging from 10 nM to 10 μM (grey bars; FIG. 8A).
In another set of experiments, CNS-1 glioma cell-line was treated with increased doses of TLCK (125 nM to 14 mM), for 48 hours (FIG. 9; grey bars). Proliferation was measured by means of XTT in comparison to non-treated cells (control; black bar).
Initially, CNS-1 glioma cells were treated with increased concentrations of two peptide conjugates: a short conjugate of the formula tosyl-DPR-CK (comprising 3 amino acids, 3AA) or a long conjugate of the formula tosyl-NATLDPR-CK (comprising 7 amino acids, 7AA; SEQ ID NO: 4) in concentrations of 100 pM, 1 nM and 10 nM, for 48 hours (FIG. 10). FIG. 10 provides the results of an XTT assay used for assessing cell proliferation.
The effect of the peptide conjugate alone, or in combination with PAR-1 antagonist, SCH79797, on cell proliferation was determined in comparison to untreated cells or cells treated with PAR-1 antagonist (FIG. 13).

## N=C(N)c1ccc(CC(NC(=O)CNS(=O)(=O)c2ccc3ccccc3c2)C(=O)N2CCCCC2)cc1 (racemic) [NAPAP, Na-(2-naphthyl-sulphonyl-glycyl)-DL-p-amidinophenylalanyl-piperidine]
CNS-1 glioma cells [1]
  thrombin-like activity: inhibited
CNS-1 glioma cells [2]; XTT, 1 μM
  proliferation, administered alone: did not inhibit proliferation
CNS-1 glioma cells [2]; compared with PAR-1 antagonist (1 μM) alone
  proliferation-inhibition, combined treatment with the PAR-1 antagonist: significantly increased said inhibitory effect
